Data taken from PMC2662489 (Biochemical Journal, 2009).

Protein sequences, listed by entry. Tags and fused reporters are not part of them. Lines headed by an entry give the natural chain unless they say otherwise; changes in a name come on top.
UniProt P60752: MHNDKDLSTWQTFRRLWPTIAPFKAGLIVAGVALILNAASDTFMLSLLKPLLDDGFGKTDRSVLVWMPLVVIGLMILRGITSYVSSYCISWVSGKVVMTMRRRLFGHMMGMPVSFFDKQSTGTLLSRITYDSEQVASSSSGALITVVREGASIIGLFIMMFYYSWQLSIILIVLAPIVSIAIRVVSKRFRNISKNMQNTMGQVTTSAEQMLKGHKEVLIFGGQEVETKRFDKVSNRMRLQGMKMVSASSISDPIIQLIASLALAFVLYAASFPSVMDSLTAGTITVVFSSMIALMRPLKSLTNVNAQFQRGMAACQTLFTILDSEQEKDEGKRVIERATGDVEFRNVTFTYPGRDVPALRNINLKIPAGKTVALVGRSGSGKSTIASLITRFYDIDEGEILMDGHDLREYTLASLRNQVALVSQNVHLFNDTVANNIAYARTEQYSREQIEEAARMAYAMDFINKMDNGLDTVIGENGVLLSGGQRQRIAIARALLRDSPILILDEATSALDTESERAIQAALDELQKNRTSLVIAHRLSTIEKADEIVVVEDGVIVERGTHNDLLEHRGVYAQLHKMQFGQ

Legend:
[1] = biological target: T1, MsbA-MIANS (Escherichia coli, UniProt P60752); test: Dual sequential titration of MsbA-MIANS fluorescence quenching; assay type: binding
Outline: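 MIANS-labelled MsbA (100 μg/ml) was prepared by labelling with 10 μM MIANS, quenching with DTE and dialysing. It was held in 100 mM Hepes, 50 mM NaCl, 5 mM MgCl2, 0.05% DM, pH 7.5, at 23 °C, or 10 °C for ATP to prevent hydrolysis. […] Data were fitted to a single-site model for Kd and ΔFmax.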

[2] = biological target: T1, MsbA-MIANS; test: MIANS fluorescence quenching titration of MsbA-MIANS; assay type: binding; conditions: MsbA 100 μg/ml in 0.05% DM

Kd ([1]; 10 °C, titrated after ATP): 18.7 ± 3.3 µM
Kd ([1]; 10 °C, titrated after daunorubicin): 18.1 ± 3.3 µM
Kd ([1]; 23 °C, titrated after daunorubicin): 24.5 ± 4.4 µM
Kd ([1]; 23 °C, titrated after p[NH]ppA): 16.4 ± 3.7 µM
Kd ([2]; 10 °C, ligand alone): 2.44 ± 0.35 µM
Kd ([2]; 23 °C, single-site fit): 5.46 ± 1.04 µM
Substance: Lipid A
